AlphaSeq binding of Ab-14 heavy chain variants to a spike HR2 peptide

Source: Li et al. 2023 (doi:10.1038/s41467-023-39022-2), MIT Lincoln Laboratory and A-Alpha Bio; data file from the FLAb repository.

All variants were tested on one target, the spike HR2 peptide PDVDLGDISGINAS (SARS-CoV-2).

The variants keep the light chain, the linker and the frameworks of Ab-14 (scFv order VH, a 15-residue (Gly4Ser)3 linker, VL).
VH: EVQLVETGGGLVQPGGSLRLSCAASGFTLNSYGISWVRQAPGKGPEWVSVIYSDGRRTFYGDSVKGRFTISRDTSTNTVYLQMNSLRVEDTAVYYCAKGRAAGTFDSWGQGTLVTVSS
VL: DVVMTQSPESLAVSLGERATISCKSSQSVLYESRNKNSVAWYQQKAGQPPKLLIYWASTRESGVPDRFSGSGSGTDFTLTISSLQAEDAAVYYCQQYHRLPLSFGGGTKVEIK

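The starting antibody came from a phage panning campaign against this peptide. Designed CDR sequences, proposed from the first random library and measured here. Several design methods are mixed in this list. The scFvs were displayed on barcoded MATa yeast, the peptide on MATalpha yeast. After mating in shaken culture at 30 °C for 16 h, diploids were selected and their barcode pairs sequenced. The ratio of observed to expected reads was calibrated, replicate by replicate, on BCL2-family standards whose Kd was known from biolayer interferometry. The assay was run in six technical replicates.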

Each variant is given by its three heavy chain CDRs, as the data file delimits them; those of the parent are GFTLNSYGIS, VIYSDGRRTFYGDSVK, GRAAGTFDS.
Scale: log10 of Kd in nM, estimated from mating counts; low values are strong binders.
Replicates are averaged; those with no signal do not enter the mean.
A pair that was not seen in any replicate is written "nd"; this usually means weak binding, but a binder can also be missed.
Entries are sorted by rising average, undetected variants last.
Background: pairings of all heavy chain designs with three empty control strains gave a value in 1% of cases (median 2.08, 5th percentile 0.84). Values in that range, when seen in few replicates, are hard to tell from nonspecific mating.

| # | CDR-H1 | CDR-H2 | CDR-H3 | mean log10 Kd (nM) | detected |
|---|---|---|---|---|---|
| 1 | GFDLNEYGIS | VIYADGKRTAYSDSVK | GEVAGTFVQ | -0.97 | 6 of 6 |
| 2 | GFDLDEYGIS | VIYADGKRKAYADSVK | GNVAGTFDV | -0.88 | 6 of 6 |
| 3 | GFDLNEYGIS | VIYADGRRTAYSDSVK | GENAGTFDS | -0.72 | 6 of 6 |
| 4 | GFDLDEYGIS | VIYADGKRTYYADSVK | GNVAGTFDV | -0.69 | 6 of 6 |
| 5 | GFDLNEYGIS | VIYADGVRTFYTDSVK | GNVAGTFDV | -0.67 | 6 of 6 |
| 6 | GFTLDEYGIS | VIYADGRRTFYADSVK | GGVAGTFDQ | -0.64 | 6 of 6 |
| 7 | GFDLNEYGIS | VIYADGMRTVYADSVK | GNVAGTFDT | -0.58 | 6 of 6 |
| 8 | GFDLNEYGIS | VIYADGMRTAYADSVK | GNTAGTFDL | -0.50 | 6 of 6 |
| 9 | GFSLDEYGIS | VIYADGRRTFYADSVK | GNSAGTFDL | -0.48 | 6 of 6 |
| 10 | GFDLDEYGIS | VIYADGKRTAYSDSVK | GNVAGTFDL | -0.43 | 6 of 6 |
| 11 | GFDLNEYGIS | VIYADGRRTSYKDSVK | GEIAGTFDV | -0.39 | 6 of 6 |
| 12 | GFDLNEYGIS | VIYADGRRTFYADSVK | GQNAGTFDT | -0.35 | 6 of 6 |
| 13 | GFSLNEYGIS | VIYSDGRRTAYGDSVK | GRAAGTFDS | -0.33 | 12 of 12 |
| 14 | FQLLDDYGIS | VIYADGKRQAYVNSVK | GEHAGTFDV | -0.32 | 6 of 6 |
| 15 | GFQLNEYGIS | VIYSDGRRTFYTDRVK | GEAAGTFDS | -0.28 | 1 of 6 |
| 16 | GFQLDEYGIS | VIYADGRRTFYQDSVK | GEVAGTFDA | -0.23 | 6 of 6 |
| 17 | GFTLDSYGIS | VIYADGRRTFYGDSVK | GRIAGTFDS | -0.21 | 6 of 6 |
| 18 | GFDLNEYGIS | VIYADGSRTFYADSVK | GNAAGTFDS | -0.20 | 6 of 6 |
| 19 | GFSLDEYGIS | VIYADGMRTAYADSVK | GEVAGTFDV | -0.19 | 6 of 6 |
| 20 | GFSLNSYGIS | VIYSDGRRTFYGDSVK | GTQAGTFDS | -0.19 | 6 of 6 |
| 21 | GFDLNEYGIS | VIYADGSRTFYSDSVK | GNNAGTFDS | -0.13 | 6 of 6 |
| 22 | GFDLNEYGIS | VIYADGRRTFYADSVK | GEAAGTFDV | -0.09 | 6 of 6 |
| 23 | GFSLKSYGIS | VIYSDGRRTFYADSVK | GRAAGTFDS | -0.08 | 6 of 6 |
| 24 | GFSLNEYGIS | VIYSDGRRTFYGDSVK | GSAAGTFDT | 0.01 | 6 of 6 |
| 25 | GFTLNQYGIS | VIYSDGRRTFYGDAVK | GSAAGTFDS | 0.06 | 6 of 6 |
| 26 | KFDLNSYGIS | VIYSDGRRTFYADSVK | GRTAGTFDS | 0.09 | 6 of 6 |
| 27 | GFDLEDYGIS | VIYADGKRTAYADSVK | GEVAGTFDT | 0.20 | 6 of 6 |
| 28 | GFTLNEYGIS | VIYSDGRRTFYGDSVK | GRTAGTFSS | 0.28 | 6 of 6 |
| 29 | GFQLNEYGIS | VIYSDGRRTFYGDSVK | GRTAGTFDK | 0.29 | 6 of 6 |
| 30 | GFQLNSYGIS | VIYSDGRRTFYVDSVK | GHAAGTFDS | 0.42 | 1 of 6 |
| 31 | GFDLNEYGIS | VIYSDGRRTFYGDSVK | GNAAGTFDS | 0.47 | 6 of 6 |
| 32 | GFTLNEYGIS | VIYSDGRRTFYTDSVK | GRFAGTFDI | 0.50 | 6 of 6 |
| 33 | GFTLNDYGIS | VIYSDGRRTFYGDSVK | GKAAGTFDV | 0.57 | 6 of 6 |
| 34 | GFDLNSYGIS | VIYSDGRRTFYADAVK | GKTAGTFDS | 0.60 | 6 of 6 |
| 35 | GFTLNDYGIS | VIYSDGRRTFYSDSVK | GRAAGSFDS | 0.61 | 6 of 6 |
| 36 | GFLLNDYGIS | VIYSDGRRTFYKDSVK | GSAAGTFDS | 0.62 | 6 of 6 |
| 37 | SFELNSYGIS | VIYSDGRRTFYADSVK | GQAAGTFDS | 0.82 | 6 of 6 |

Continued, with the values leading:

| # | mean log10 Kd (nM) | detected | CDR-H1 | CDR-H2 | CDR-H3 |
|---|---|---|---|---|---|
| 38 | 0.93 | 2 of 6 | GFSLNSYGIS | VIYSDGRRTFYIDSVK | GRHAGTFDS |
| 39 | 0.97 | 6 of 6 | GFSLNSYGIS | VIYSDGRRSFYGDSVK | GEAAGTFDS |
| 40 | 0.97 | 5 of 6 | GFELNSYGIS | VIYSDGRRTFYGDSVK | GRQAGTFDD |
| 41 | 1.08 | 4 of 6 | GFHLNSYGIS | VIYSDGRRTFYGDSVK | GQTAGTFDS |
| 42 | 1.22 | 6 of 6 | GFELNSYGIS | VIYSDGRRTFYIDSVK | GRMAGTFDT |
| 43 | 1.27 | 5 of 6 | GFTLNSYGIS | VIYSDGRRTFYADHVK | GEAAGTFDS |
| 44 | 1.28 | 5 of 6 | GFTLNSYGIS | VIYSDGKRTFYSDQVK | GEAAGTFDS |
| 45 | 1.34 | 1 of 6 | GFTLNDYGIS | VIYSDGRRTFYKDSVK | GRAAGTFMS |
| 46 | 1.45 | 3 of 6 | GFSLNSYGIS | VIYSDGRRTFYGDSVK | GQTAGTFDG |
| 47 | 1.45 | 1 of 6 | GFGLDEYGIH | VIYADGMRSAYANSVK | GHQAGGIVW |
| 48 | 1.53 | 2 of 6 | GETLNSYGIS | VIYSDGRRTFYHDSVK | GFAAGTFDS |
| 49 | 1.69 | 6 of 6 | GFDLNSYGIS | VIYSDGRRTFYIDSVK | GRAAGTFNQ |
| 50 | 2.01 | 3 of 6 | GFNLNSYGIS | VIYSDGRRTYYGNSVK | GRAAGTFDS |
| 51 | 2.04 | 1 of 6 | GFDLNSYGIS | VIYSDGRRTFYGDSVK | GRIAGTFWS |
| 52 | 2.09 | 1 of 6 | HFTLNDYGIS | VIYSDGRRTFYGDKVK | NQAAGTFDS |
| 53 | 2.10 | 5 of 6 | GFTLDSYGIS | VIYSDGRRTWYGDSVK | GRAAGTFDS |
| 54 | 2.20 | 1 of 6 | GFTLDSYHIH | VIYADGRRTFYGDSVK | GMAAGVFES |
| 55 | 2.47 | 2 of 6 | GFTLNSYGIS | VIYSDGQRTFYGDSVK | GREAGTFDS |
| 56 | 2.55 | 1 of 6 | GFTLNSYGIS | VIYSDGRRTQYGDSVK | GRFAGTFDS |
| 57 | 2.77 | 1 of 6 | GFTLNSYGIS | VIYSDGRRTMYSNSVK | GRAAFTFDS |
| 58 | 3.02 | 1 of 6 | KFNLNSYGIS | VIYSDGRRTFYGDSVK | GKNAGTFDS |
| 59 | nd | 0 of 6 | HFTLNSYGIS | VIYFDGRRTAYGDSVK | GRVTGTFDS |
| 60 | nd | 0 of 6 | GFMLDEYGIS | VIYADGVRTMYIDSVK | GLNGMICDI |
| 61 | nd | 0 of 6 | GFSIDEYGIS | VIYADGMRARYSDAVK | GVKVGNVVM |
| 62 | nd | 0 of 6 | GFGLDEYGIS | VIYADGQRKFYADNVK | GVFGSLGQV |
| 63 | nd | 0 of 6 | GFTLNEYGIS | VIYSDGRRTFYSDSVK | GRAAGKFMS |
| 64 | nd | 0 of 6 | GFDLNSYGIS | VIYSDGRRTFYGDSVK | GRAAAIYDS |
| 65 | nd | 0 of 6 | GFDLKEYGIS | VIYADGSRTAYSKNVK | GEFDDMVLV |
| 66 | nd | 0 of 6 | GFTLNEYGIS | VIYSDGRRTFYGDSVK | GRAAWTFDQ |
| 67 | nd | 0 of 6 | GFTLNEYGIS | VIYSDGRRTAYGDSVK | GQAAGTADS |
| 68 | nd | 0 of 6 | GFDLNSYGIS | VIYSDGRRTFYGDSVK | GRTAGSFMS |
| 69 | nd | 0 of 6 | GFTLNEYGIS | VIYSDGRRTFYGDSVK | GRAAGTFTL |
| 70 | nd | 0 of 6 | GFDLNSYGIS | VIYSDGRRTFYGDSVK | GHAAGWFNS |
| 71 | nd | 0 of 6 | GFNLNEYGIS | VIYADGRRYQYIDSVK | GIVVGKVLY |
| 72 | nd | 0 of 6 | GMSLDEYGIS | VIYADGMRSAYSDKVK | GHVDEYAYV |
| 73 | nd | 0 of 6 | GETLNSYGIS | VIYSDGRRTFYGDSVK | GRAPGTFDS |
| 74 | nd | 0 of 6 | GFRLNEYGIS | VIYSDGRRTFYGDSVK | GRAAVTFDQ |
| 75 | nd | 0 of 6 | GFTLESYGIS | VIYSDGRRTFYLDSVK | GQGAGTFDS |

Repeated from above, the 11 best binders with a signal in all replicates:

CDR-H1	CDR-H2	CDR-H3	mean log10 Kd (nM)	detected
GFDLNEYGIS	VIYADGKRTAYSDSVK	GEVAGTFVQ	-0.97	6 of 6
GFDLDEYGIS	VIYADGKRKAYADSVK	GNVAGTFDV	-0.88	6 of 6
GFDLNEYGIS	VIYADGRRTAYSDSVK	GENAGTFDS	-0.72	6 of 6
GFDLDEYGIS	VIYADGKRTYYADSVK	GNVAGTFDV	-0.69	6 of 6
GFDLNEYGIS	VIYADGVRTFYTDSVK	GNVAGTFDV	-0.67	6 of 6
GFTLDEYGIS	VIYADGRRTFYADSVK	GGVAGTFDQ	-0.64	6 of 6
GFDLNEYGIS	VIYADGMRTVYADSVK	GNVAGTFDT	-0.58	6 of 6
GFDLNEYGIS	VIYADGMRTAYADSVK	GNTAGTFDL	-0.50	6 of 6
GFSLDEYGIS	VIYADGRRTFYADSVK	GNSAGTFDL	-0.48	6 of 6
GFDLDEYGIS	VIYADGKRTAYSDSVK	GNVAGTFDL	-0.43	6 of 6
GFDLNEYGIS	VIYADGRRTSYKDSVK	GEIAGTFDV	-0.39	6 of 6

The range of this assay differs from that of the first round, and the authors advise against merging the two.
Some sequences occur more than once in the pool; their replicates are pooled.
Of ten entries with the parent sequence, four were seen in most replicates (averages 0.34 to 2.37), three in one and three in none, so single entries are noisy.
The authors' rule: three or more of the six replicates give a measured affinity, fewer mean a poor binder.